Assay results from patent US20150011541A1, “PIPECOLATE-SULFONAMIDES FOR TREATMENT OF PSYCHIATRIC DISORDERS” (Max-Planck-Gesellschaft zur Förderung der Wissenschaften …, priority 2011, published 2015).

Assays:
[1] = target: T1, human FKBP52FK1 (Homo sapiens, UniProt Q02790); experiment: Fluorescence polarization assay, binding to FK1 domain of FKBP52; settings: read-out: FKBP52 FK1 % inhibition, at a concentration of 5 μM; library testing
T1 sequence (Q02790 50-138 limits assumed): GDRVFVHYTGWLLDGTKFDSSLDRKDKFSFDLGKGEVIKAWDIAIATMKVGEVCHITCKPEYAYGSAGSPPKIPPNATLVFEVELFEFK

[2] = target: T2, human FKBP51FK1 (Homo sapiens, UniProt Q13451); experiment: Fluorescence polarization assay, binding to FK1 domain of FKBP51; settings: read-out: FKBP 51 FK1 % inhibition, at a concentration of 5 μM; library testing
T2 sequence (Q13451 42-130 limits assumed): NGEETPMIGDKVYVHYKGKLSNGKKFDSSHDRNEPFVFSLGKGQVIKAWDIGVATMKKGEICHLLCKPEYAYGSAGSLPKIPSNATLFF

- inhibition at 5 µM [1]: 16.2%
- inhibition at 5 µM [2]: 15.2%
SMILES: COc1ccc(CC[C@@H](OC(=O)[C@@H]2CCCCN2S(=O)(=O)c2ccoc2)c2cccc(OCC(=O)O)c2)cc1OC [Compound 4, 2-(3-((R)-3-(3,4-dimethoxyphenyl)-1-((S)-1-(furan-3-ylsulfonyl)piperidine-2-carbonyloxy)propyl)phenoxy)acetic acid]
